Columns and labels:
[1] = system: RXR (human RXRα amino acids 197-462) interaction with conserved carboxy terminal domain of human TBP; settings: strain Y190, 16 hours, presence or absence of 1 μM 9-cis retinoic acid
[2] = system: RXR (human RXRα amino acids 197-462) interaction with full length Drosophila TAF110; settings: strain Y190, 16 hours, presence or absence of 1 μM 9-cis retinoic acid
[3] = system: RXR-M454A/L455A interaction with TBP-V237G; experiment: Yeast two-hybrid assay, RXR τc mutant M454A/L455A with TBP mutant V237G (beta-galactosidase); format: cell-based, human; settings: strain Y190, 16 hours, presence vs absence of 1 μM 9-cis retinoic acid
Description: Point mutations were introduced into the appropriate oligonucleotides.
The finding that a single point mutation in TBP could disrupt the interaction with the wildtype RXR ligand binding domain prompted an examination of the ability of TBP-V237G to interact with the RXR .tau.c mutants. […] Point mutants consist of amino acids 197-462 of RXR. RXR197-443 represents the .tau.c truncation. Note the difference in scale between A and B.

CC1=C(/C=C/C(C)=C\C=C\C(C)=C\C(=O)O)C(C)(C)CCC1 [9-cis retinoic acid]
interaction between RXR and the conserved carboxy-terminal domain of TBP [1]: specific and ligand-dependent interaction | interaction between RXR and TAF110 [2]: ligand-dependent interaction | ligand-dependent induction of the interaction between TBP-V237G and RXR-M454A/L455A [3]: ~10 fold

Reference: patent US5906920A, “Methods for the detection of ligands for retinoid X receptors” (The Salk Institute for Biological Studies, priority 1995, dated 1999)
